{"source": "paper PMC11400633", "about": "“Peptides inhibiting the assembly of monomeric human L‐lactate dehydrogenase into catalytically active homotetramer decrease the synthesis of lactate in cultured cells” (Protein Science : A Publication of the Protein Society, 2024)", "key": {"tetrameric LDH‐A": {"biological_target": "T1, tetrameric LDH‐A (Homo sapiens, UniProt P00338)", "T1 construct": "made in house; host or cells: E. coli BL21(DE3), pET9a (NdeI/BamHI)", "experiment": "SPR binding of β-NADH to immobilized tetrameric hLDH-A", "settings": "50 mM HEPES pH 7.5, 25°C", "procedure": "(§1) To further inspect the biochemical features of monomeric LDH‐A, we analyzed the binding of β‐NADH to LDH‐A (at pH 7.5) by Surface Plasmon Resonance (SPR). First, we tested the association between the tetrameric enzyme and the redox cofactor. […] However, by decreasing to 7.0 the pH of the binding assay, the observed amplitude was more than twice the corresponding response at pH 7.5 (Figure S4). […] However, it should be considered that the DLS experiments were carried out with free LDH‐A monomers, whereas the SPR assays were performed with immobilized enzyme which therefore is incapable to assemble into the tetrameric form. Accordingly, we propose that the binding of β‐NADH and the assembly of monomers represent a concerted action, the occurrence of which is hampered by the immobilization of LDH‐A.\nFIGURE 4 Binding of β‐NADH to tetrameric and monomeric hLDH‐A. (a) Kinetics of the association of β‐NADH to tetrameric hLDH‐A as detected by surface plasmon resonance. Sensorgrams were observed loading increasing concentration of β‐NADH (0.49–125 μM) on a sensor chip modified with immobilized tetrameric human LDH‐A. (b) Determination of the K D of hLDH‐A for β‐NADH. The response units refer to the data shown in “a.” The continuous lines represent the best fit of a parametric rectangular hyperbola to the experimental observations. (c) Sensorgrams observed loading increasing concentration of β‐NADH (0.25–10 mM) on a sensor chip modified with immobilized monomeric human LDH‐A. (d) Linear dependence of the response units reported in “c” on the concentration of loaded β‐NADH. The continuous line represents the best fit of a linear equation to the experimental observations.\nThe binding of β‐NADH by monomeric and tetrameric hLDH‐A was assayed using a Biacore T200 instrument (Cytiva, Marlborough, MA). Both monomeric and tetrameric LDH‐A were immobilized on a Xantec CMD500 chip at a concentration of 30 μg/ml in 10 mM HEPES, pH 7 using a standard amine coupling protocol, yielding an observed immobilization level of 6984 and 17,424 response units (Rus), respectively. The binding of β‐NADH to hLDH‐A was tested in 50 mM HEPES, pH 7.5, at 25°C, using a flow rate of 50 μl/min, with 60 and 10 s of association and dissociation time, respectively. The elaboration of sensorgrams was achieved using the BIAevaluation software."}, "monomeric hLDH‐A": {"biological_target": "T2, monomeric hLDH‐A (Homo sapiens, UniProt P00338)", "T2 construct": "made in house; host or cells: E. coli BL21(DE3), pET9a (NdeI/BamHI)", "experiment": "SPR binding of β-NADH to immobilized monomeric hLDH-A", "settings": "pH 7.0, linear dependence of response up to 10 mM β-NADH", "procedure": "as §1\nFIGURE 4 Binding of β‐NADH to tetrameric and monomeric hLDH‐A. (a) Kinetics of the association of β‐NADH to tetrameric hLDH‐A as detected by surface plasmon resonance. Sensorgrams were observed loading increasing concentration of β‐NADH (0.49–125 μM) on a sensor chip modified with immobilized tetrameric human LDH‐A. (b) Determination of the K D of hLDH‐A for β‐NADH. The response units refer to the data shown in “a.” The continuous lines represent the best fit of a parametric rectangular hyperbola to the experimental observations. […]"}}, "note": "Read-outs that look alike come from different tables or passages of the source."}
{"substance": "β‐NADH", "values": [{"measurement": "Kd", "setting": "tetrameric LDH‐A; independent assay 1 of 3, read-out: K D of the enzyme–cofactor complex", "value": 28, "unit": "µM"}, {"measurement": "Kd", "setting": "tetrameric LDH‐A; independent assay 2 of 3, read-out: K D of the enzyme–cofactor complex", "value": 22, "unit": "µM"}, {"measurement": "Kd", "setting": "tetrameric LDH‐A; independent assay 3 of 3, read-out: K D of the enzyme–cofactor complex", "value": 21, "unit": "µM"}, {"measurement": "Kd", "setting": "tetrameric LDH‐A; mean of three independent assays, read-out: K D of the enzyme–cofactor complex, mean value", "value": "23 ± 4", "unit": "µM"}, {"measurement": "K D for the monomer‐coenzyme binary complex", "setting": "monomeric hLDH‐A", "value": "cannot be determined"}]}
